By UniProt entry, the sequences of proteins in these tests, tags left out.
UniProt O75762, whole entry, looked up: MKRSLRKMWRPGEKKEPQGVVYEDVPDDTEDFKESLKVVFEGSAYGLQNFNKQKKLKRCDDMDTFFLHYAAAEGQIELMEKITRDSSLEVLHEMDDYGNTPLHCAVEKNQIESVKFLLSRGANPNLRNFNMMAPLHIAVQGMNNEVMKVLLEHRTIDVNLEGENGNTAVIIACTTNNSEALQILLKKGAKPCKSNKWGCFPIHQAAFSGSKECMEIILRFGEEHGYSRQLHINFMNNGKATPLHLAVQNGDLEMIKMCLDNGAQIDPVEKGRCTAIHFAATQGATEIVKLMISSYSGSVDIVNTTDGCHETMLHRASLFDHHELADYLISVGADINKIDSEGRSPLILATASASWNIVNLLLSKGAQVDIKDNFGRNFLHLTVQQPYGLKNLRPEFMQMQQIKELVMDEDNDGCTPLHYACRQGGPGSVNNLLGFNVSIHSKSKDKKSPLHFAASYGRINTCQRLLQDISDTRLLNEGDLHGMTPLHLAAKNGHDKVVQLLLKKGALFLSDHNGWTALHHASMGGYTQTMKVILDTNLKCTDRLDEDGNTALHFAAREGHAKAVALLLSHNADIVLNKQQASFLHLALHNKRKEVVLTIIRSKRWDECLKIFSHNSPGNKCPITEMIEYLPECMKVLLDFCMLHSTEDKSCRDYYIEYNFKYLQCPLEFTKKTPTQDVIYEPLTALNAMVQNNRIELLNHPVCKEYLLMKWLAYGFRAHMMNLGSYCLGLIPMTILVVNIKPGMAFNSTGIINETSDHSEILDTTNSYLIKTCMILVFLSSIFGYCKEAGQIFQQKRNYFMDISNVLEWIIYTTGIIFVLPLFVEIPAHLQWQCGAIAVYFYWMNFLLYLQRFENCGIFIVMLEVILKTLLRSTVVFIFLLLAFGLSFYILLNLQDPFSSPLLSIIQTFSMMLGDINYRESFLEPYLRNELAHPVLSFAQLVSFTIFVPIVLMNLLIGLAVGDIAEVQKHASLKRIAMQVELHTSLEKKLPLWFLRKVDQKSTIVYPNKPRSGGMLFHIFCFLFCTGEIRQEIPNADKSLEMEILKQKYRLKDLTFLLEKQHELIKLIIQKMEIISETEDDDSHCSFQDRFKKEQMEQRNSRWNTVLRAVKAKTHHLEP

In US8530487B1 (priority 2009, dated 2013):

What follows are molecules tested against human TRPA1 (Homo sapiens, UniProt O75762) (assay: Whole-cell patch clamp experiments, block of TRPA1 current). Conditions: read-out: Activity (IC50), human TRPA1, block of current in continued presence of AITC, the 1st table, scaffold drawing 18.
Format: cell-based
`NCCOc1cccc(C2NC(=S)NC3=C2C(=O)c2ccccc23)c1` (stereo not drawn) showed an IC50 greater than 1000 nM. Work on `O=C1C2=C(NC(=S)NC2c2ccccc2Cl)c2ccccc21` (stereo not drawn) yielded an IC50 of 500 to 1000 nM. For `O=C1C2=C(NC(=S)NC2c2cc(O)ccc2Br)c2ccccc21` (stereo not drawn), the IC50 was 100 to 500 nM. For `O=C1C2=C(NC(=S)NC2c2cccc(OC(F)F)c2)c2ccccc21` (stereo not drawn), the IC50 was less than 100 nM. `COc1ccc(F)c(C2NC(=S)NC3=C2C(=O)c2ccccc23)c1` (stereo not drawn) was tested, and the IC50 was less than 100 nM. `CCc1ccccc1C1NC(=S)NC2=C1C(=O)c1ccccc12` (stereo not drawn) was tested, and the IC50 was 100 to 500 nM. With `O=C1C2=C(NC(=S)NC2c2cccc(OCCO)c2)c2ccccc21` (stereo not drawn) the IC50 was 100 to 500 nM. `COc1cc(OC)cc(C2NC(=S)NC3=C2C(=O)c2ccccc23)c1` (stereo not drawn) was tested, and the IC50 was 100 to 500 nM. `O=C1C2=C(NC(=S)NC2c2cccc(Cl)c2)c2ccccc21` (stereo not drawn) was tested, and the IC50 was less than 100 nM. `O=C1C2=C(NC(=S)NC2c2cccc(OC(F)(F)F)c2)c2ccccc21` (stereo not drawn) gave an IC50 of 100 to 500 nM. `O=C1C2=C(NC(=S)NC2c2ccccc2C(F)(F)F)c2ccccc21` (stereo not drawn) showed an IC50 of 100 to 500 nM. For `O=C1C2=C(NC(=S)NC2c2ccc3c(c2)OCO3)c2ccccc21` (stereo not drawn), the IC50 was 100 to 500 nM. With `Cc1ccc(C2NC(=S)NC3=C2C(=O)c2ccccc23)cc1` (stereo not drawn) the IC50 was greater than 1000 nM. For `COCCOc1cccc(C2NC(=S)NC3=C2C(=O)c2ccccc23)c1` (stereo not drawn), the IC50 was less than 100 nM. Molecule `O=C1C2=C(NC(=S)NC2c2ccccc2Br)c2ccccc21` (stereo not drawn) has an IC50 of less than 100 nM. `CN(C)CCOc1cccc(C2NC(=S)NC3=C2C(=O)c2ccccc23)c1` (stereo not drawn) showed an IC50 greater than 1000 nM. `O=C1C2=C(NC(=S)NC2c2ccc(Cl)c(F)c2)c2ccccc21` (stereo not drawn) showed an IC50 of 100 to 500 nM. Work on `O=C1C2=C(NC(=S)NC2c2cc(Cl)ccc2F)c2ccccc21` (stereo not drawn) yielded an IC50 of less than 100 nM. Work on `COc1cc(C2NC(=S)NC3=C2C(=O)c2ccccc23)ccc1O` (stereo not drawn) yielded an IC50 greater than 1000 nM. With `O=C1C2=C(NC(=S)NC2c2ccc(F)cc2)c2ccccc21` (stereo not drawn) the IC50 was greater than 1000 nM. In the case of `CCOc1ccccc1C1NC(=S)NC2=C1C(=O)c1ccccc12` (stereo not drawn), the IC50 is reported as greater than 1000 nM. In the case of `COc1cccc(C2NC(=S)NC3=C2C(=O)c2ccccc23)c1` (stereo not drawn), the IC50 is reported as less than 100 nM. For `O=C1C2=C(NC(=S)NC2c2cccc(Cl)c2Cl)c2ccccc21` (stereo not drawn), the IC50 was 100 to 500 nM. With `O=C1C2=C(NC(=S)NC2c2ccc(F)c(F)c2)c2ccccc21` (stereo not drawn) the IC50 was greater than 1000 nM. With `CC(C)Oc1cccc(C2NC(=S)NC3=C2C(=O)c2ccccc23)c1` (stereo not drawn) the IC50 was greater than 1000 nM. In the case of `O=C1C2=C(NC(=S)NC2c2cccc(O)c2)c2ccccc21` (stereo not drawn), the IC50 is reported as 100 to 500 nM. `O=C1C2=C(NC(=S)NC2c2ccc([N+](=O)[O-])cc2)c2ccccc21` (stereo not drawn) showed an IC50 of 500 to 1000 nM. With `CCCCOc1cccc(C2NC(=S)NC3=C2C(=O)c2ccccc23)c1` (stereo not drawn) the IC50 was greater than 1000 nM. `COc1ccc(Br)c(C2NC(=S)NC3=C2C(=O)c2ccccc23)c1` (stereo not drawn) was tested, and the IC50 was less than 100 nM. Molecule `COc1ccc(O)c(C2NC(=S)NC3=C2C(=O)c2ccccc23)c1` (stereo not drawn) has an IC50 of less than 100 nM. `O=C1C2=C(NC(=S)NC2c2cc(F)c(F)c(F)c2)c2ccccc21` (stereo not drawn) gave an IC50 of 100 to 500 nM. `CN(C)c1ccc(C2NC(=S)NC3=C2C(=O)c2ccccc23)cc1` (stereo not drawn) was tested, and the IC50 was greater than 1000 nM. For `O=C1C2=C(NC(=S)NC2c2cccc([N+](=O)[O-])c2)c2ccccc21` (stereo not drawn), the IC50 was 100 to 500 nM. Molecule `O=C1C2=C(NC(=S)NC2c2ccc(Cl)c(Cl)c2)c2ccccc21` (stereo not drawn) has an IC50 of 500 to 1000 nM. `O=C1C2=C(NC(=S)NC2c2c(Cl)cccc2Cl)c2ccccc21` (stereo not drawn) was tested, and the IC50 was 100 to 500 nM. In the case of `COc1ccc(C2NC(=S)NC3=C2C(=O)c2ccccc23)cc1Br` (stereo not drawn), the IC50 is reported as greater than 1000 nM. Work on `COc1ccc(OC)c(C2NC(=S)NC3=C2C(=O)c2ccccc23)c1` (stereo not drawn) yielded an IC50 greater than 1000 nM.

Same assay, conditions: read-out: Activity (IC50), human TRPA1, block of current in continued presence of AITC, the 3rd table, scaffold drawing 21
`O=C1C2=C(NC(=S)NC2c2ccccc2)c2cc(O)ccc21` (stereo not drawn) gave an IC50 greater than 1000 nM. `O=C1C2=C(NC(=S)NC2c2ccccc2)c2cccc(O)c21` (stereo not drawn) was tested, and the IC50 was greater than 1000 nM. In the case of `COc1ccc2c(c1)C1=C(C2=O)C(c2ccccc2)NC(=S)N1` (stereo not drawn), the IC50 is reported as 100 to 500 nM.

Same assay, conditions: read-out: Activity (IC50), human TRPA1, block of current in continued presence of AITC, the 5th table, scaffold drawing 23
Work on `O=C1NC2=C(C(=O)c3ccccc32)C(c2ccccc2)N1` (stereo not drawn) yielded an IC50 greater than 1000 nM. In the case of `COCCCOc1cccc(C2NC(=O)NC3=C2C(=O)c2ccccc23)c1` (stereo not drawn), the IC50 is reported as 100 to 500 nM.
